By UniProt entry, the sequences of proteins in these tests, tags left out.
UniProt P51681, whole entry: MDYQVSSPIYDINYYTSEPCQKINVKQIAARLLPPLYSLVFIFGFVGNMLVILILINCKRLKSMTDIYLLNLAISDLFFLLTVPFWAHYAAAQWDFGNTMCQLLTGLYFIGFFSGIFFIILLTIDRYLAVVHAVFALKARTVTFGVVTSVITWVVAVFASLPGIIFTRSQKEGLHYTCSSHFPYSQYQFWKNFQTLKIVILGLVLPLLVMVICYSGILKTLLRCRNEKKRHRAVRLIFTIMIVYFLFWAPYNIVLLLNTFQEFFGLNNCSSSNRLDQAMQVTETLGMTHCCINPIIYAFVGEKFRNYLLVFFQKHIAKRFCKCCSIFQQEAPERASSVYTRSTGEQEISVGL

According to patent publication US10167299B2, “1-(3-aminopropyl) substituted cyclic amine compounds, preparation method therefor, and pharmaceutical compositions and uses thereof” (SHANGHAI INSTITUTE OF MATERIA MEDICA, CHINESE ACADEMY OF …, priority 2013, dated 2019):

Molecular target: CCR5 (Homo sapiens (Human), UniProt P51681)
Test: Calcium flux inhibition experiment
Type: cell-based
Settings: HEK293/CCR5-Gα16 cell line
From the text: Experiment apparatus: FlexStation II
Experiment materials: HEK293/CCR5-Gα16 cell line, Fluo-4calcium dye (fluorescent-4 calcium ion dye) and FlexStation instrument.
Experiment theory: Activation of the receptor can cause the activation of Gα16 protein, thereby activating phospholipase C (PLC) to generate IP3 and DAG by establishing CCR5 and Ga16 co-transfected cell line. IP3 can bind to IP3 receptors on the endoplasmic reticulum and mitochondria in a cell, which can cause the release of intracellular calcium. Thus, determination of changes in intracellular calcium can be used as a method to detect CCR5 activation state. Fluo-4/AM is a fluorescent probe indicator for calcium used to measure calcium ion. As a non-polar lipid-soluble compound, after it enters into cells, AM group is dissociated to release Fluo-4 under the effect of cell lipolysis enzyme. […] Ultimately, the level of activated Ga protein can be reflected by measuring the excited fluorescence intensity. […]
3. The medicament to be determined was diluted with calcium buffer to eight concentration gradients, which is 1×10^−4 M, 1×10^−5 M, 1×10^−6 M, 1×10^−7 M, 1×10^−8 M, 1×10^−9 M, 1×10^−10 M, and 1×10^−11 M, respectively, and homogeneously mixed. […]
5. […] 25 μl of calcium buffer containing the medicament to be determined was added automatically from the 15th second.

## Cc1nnc(C(C)C)n1C1CC2CCC(C1)N2CC[C@H](NC(=O)CC#N)c1cccs1 (stereo partly drawn) [Compound 164, N-[(1S)-3-[exo-3-(3-isopropyl-5-methyl-4H-1,2,4-triazol-4-yl)-8-azabicyclo[3.2.1]octane-8-yl]-1-(thiophen-2-yl)propyl]-2-cyanoacetamide]
  IC50: 7.38 nM
